# Experimental data published in the supplement of paper PMC8007513.
# ± gives the standard error. The entries are a selection whose mix differs from that of the whole data set.
# Test system: Trichoderma virens ATCC 9645
# Test: growth yield (OD600) relative to untreated control; higher = less growth inhibition
# Settings: compound concentration: 100 uM
# Summary of the method: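 Trichoderma virens ATCC 9645 spores, from potato dextrose agar plates grown for 7 days, were brought to 15,000 spores ml^−1 in potato dextrose broth and dispensed as 100 μl aliquots into 96-well plates. Each aliquot received library compounds at 100 μM final, with or without a biocide at 200 ng ml^−1, before growth at 30 °C and OD600 readings on a BioTek EL800 at 40 h and 72 h. Growth is expressed relative to the control containing neither agent and represents means of duplicate screens.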
smiles,measurement,setting,value
COc1cc(Br)c(C[N+]2(CCOCCC3CCC4CC3C4(C)C)CCOCC2)cc1OC (configuration not stated) [Pinaverium bromide],growth yield,40 h,2.54 ± 0.95%
same,growth yield,72 h,20.5 ± 14%
